Test results taken from patent US7740882B2, “Enhanced oral and transcompartmental delivery of therapeutic or diagnostic agents” (priority 2001, dated 2010).

Tests used:
[1] = 10% fetal calf serum
CHO/pSPORT cells = assay: Non-specific uptake in vector-transfected control CHO/pSPORT cells
Procedure: CHO Cell Uptake Studies CHO cells transiently transfected with hSMVT (CHO/hSMVT) were washed twice with 25 mM uptake buffer, containing 25 mM Hepes/Tris pH 7.5, 140 mM NaCl, 5.4 mM KCl, 1.8 CaCl2, 0.8 mM MgSO4 and 5 mM glucose, approximately 48 hours post-transfection. Subsequently, the cells were incubated with the permeant at 37° C. for 10 minutes. Uptake was stopped by washing the cells thrice with ice-cold buffer. Non-specific uptake was measured in parallel experiments with the control pSPORT vector-transfected CHO cells. Finally, the cells were solubilized by 0.1% v/v Triton X-100, and 0.6 ml was used for scintillation counting. […] Bovine serum albumin was used as the standard.
CHO Cell Uptake Studies CHO cells transiently transfected with hSMVT were washed twice with 25 mM uptake buffer, containing 25 mM Hepes/Tris pH 7.5, 140 mM NaCl, 5.4 mM KCl, 1.8 CaCl2, 0.8 mM MgSO4 and 5 mM glucose. […] Non-specific uptake was measured in parallel experiments with the control pSPORT vector-transfected CHO cells. […] From the remaining volume, 10 μl of solution was taken from each well and protein concentration was determined using the Bio-Rad reagent according to the manufacturer's instructions. […]
CHO Cell Uptake Studies. […] Non-specific uptake was measured in parallel experiments with the control pSPORT vector-transfected CHO cells. […]

Caco-2 cell monolayers = assay: Absorptive (AP to BL) transport across Caco-2 cell monolayers

With “N-acetyl-D-Lys:(ε-biotin)-D-Arg-D-Arg-D-Arg-D-Gln-D-Arg-D-Arg-D-Lys-D-Lys-D-Arg-NH2 [RI-K(biotin)-Tat9]” as the substance, how does the resistance to proteolysis [1] read?
Its resistance to proteolysis is “highly resistant to proteolysis”.

And the “uptake in CHO/pSPORT cells” value (CHO/pSPORT cells)?
The value was roughly 33.83 pmol/mg protein.

And the “Pc, carrier-mediated component” value (Caco-2 cell monolayers; Caco-2)?
The value was 3.22 ×10⁻⁶ cm/s.

What about the “Pm, passive permeability” value (Caco-2 cell monolayers; Caco-2) of the same substance?
Its value is 0.57 ×10⁻⁶ cm/s.

What about the “increase in absorptive permeability over RI-K-Tat9” value (Caco-2 cell monolayers; Caco-2, at 1 μM) of the same substance?
Its value is 3.2 fold.
